Laboratory results reported in patent publication US20140120036A1, “RADIOLABELED 5-HT6 LIGANDS” (AbbVie Inc., priority 2012, published 2014).

Test: Brain regional distribution of [3H]compound relative to cerebellum

Substance “1-(5-(3-(difluoromethoxy)phenylsulfonyl)-2-methoxyphenyl)-4-([^3H]methyl)-piperazine [Example 3]” has a F.Cortex/Cer. (3 min after dose) of 2.8 and a F.Cortex/Cer. (40 min after dose) of 1.2.
